Experimental data as given in PubChem BioAssay AID2732 (Emory University Molecular Libraries Screening Center, 2010).
Only a part is listed here, and it is no random draw. Some results for these compounds are left out of this collection, so the calls shown say nothing about other tests. Activity calls are given as the source filed them.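 Rule for the calls: active = compounds that reduced the stress-induced luciferase reporter signal by more than about 70% of percent inhibition (limit read from the data); inactive = the rest.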

Experiment: inhibitors of CHOP promoter induction, primary screen, cell-based, unfolded protein response, luciferase reporter (AID 2732);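 note: 0% = tunicamycin plus vehicle and 100% = wells without tunicamycin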
Conditions: CHO-K1 CHOP-promoter luciferase, tunicamycin-induced, 15-18 h; at 10 µM; hits give high values

Compound | inhibition
C=CCN1CCN(CCOC(=O)C(O)(c2ccccc2)c2ccccc2)CC1 | inactive: 7.36%
CCN1CCCC(OC(=O)C2(O)c3ccccc3C=Cc3ccccc32)C1 (configuration not stated) | inactive: 15.6%
Cc1ccccc1C(=O)NCC1(N2CCCCC2)CCCCC1 | inactive: 12%
CN(C)C1CCCC1OC(=O)C(O)(c1ccccc1)c1ccccc1 (configuration not stated) | inactive: 4.68%
CCCCC(CC)C(=O)N1CCN(C/C=C/c2ccccc2)CC1 (configuration not stated) | active: 71.9%
CCN(CC)CC(C)C(C)OC(=O)C(O)(c1ccccc1)c1ccccc1 (configuration not stated) | inactive: -0.88%
CC(C)N1C(=O)CC2(CCN(CCOC(=O)C(O)(c3ccccc3)c3ccccc3)CC2)C1=O | inactive: 5.15%
O=C(NCC1(N2CCCCC2)CCCCC1)c1cc([N+](=O)[O-])ccc1Cl | inactive: -5.67%
COc1ccc(Br)c(C(=O)NCC2(N3CCCCC3)CCCCC2)c1 | inactive: 19.7%
CN(C)c1cccc(C(=O)NCC2(N(C)C)CCCCC2)c1 | inactive: -18.8%
O=C(OC1CN2CCC1CC2)C(CO)(c1ccccc1)c1ccccc1 (configuration not stated) | inactive: -0.22%
COc1cccc(C(=O)NCC2(N3CCCCC3)CCCCC2)c1 | inactive: 11%
